# Test system: melanin-forming cells (B16F10 cell line)
# Details: B16F10, 1 uM to 200 uM, 72 hours, MTT, FIG. 1
substance,measurement,value
Feruloyl-Ile-Trp-Ser-Leu-Asp-Thr-Gln-Tyr-Gly-Gly-Arg-Gly-Asp-COOH,cytotoxicity,no cytotoxicity was observed
